Data from ChEMBL document CHEMBL1133841 (Bioorg Med Chem Lett, 2001).

Biological target: T1, Serine-threonine protein phosphatase 2A regulatory subunit (Gallus gallus, UniProt Q8AWE3)
T1 sequence (Q8AWE3 whole entry): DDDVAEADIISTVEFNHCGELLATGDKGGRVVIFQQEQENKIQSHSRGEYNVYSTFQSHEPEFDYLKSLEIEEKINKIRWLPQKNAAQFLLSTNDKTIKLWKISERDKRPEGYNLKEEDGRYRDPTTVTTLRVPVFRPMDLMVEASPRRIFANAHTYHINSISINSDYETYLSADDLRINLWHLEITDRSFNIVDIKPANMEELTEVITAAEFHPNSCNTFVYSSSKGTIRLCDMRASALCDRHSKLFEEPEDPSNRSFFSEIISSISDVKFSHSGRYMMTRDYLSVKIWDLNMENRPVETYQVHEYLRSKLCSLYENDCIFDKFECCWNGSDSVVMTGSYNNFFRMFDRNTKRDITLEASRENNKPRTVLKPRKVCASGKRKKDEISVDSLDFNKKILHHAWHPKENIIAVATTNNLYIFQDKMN
Assay: Inhibitory concentration against protein phosphatase 2A (PP2A) was determined

| SMILES | IC50 |
| --- | --- |
| CC[C@H](C)[C@H](C(=O)O)N1C(=O)[C@@H]2[C@H](C1=O)[C@H]1CC[C@@H]2O1 | > 1 mM |
| CC[C@H](C)[C@@H](C(=O)O)N1C(=O)[C@@H]2[C@H](C1=O)[C@H]1CC[C@@H]2O1 | > 1 mM |
